Values of other authors, collected in patent US20080009517A1, “Use of nelfinavir as a radiation sensitizer” (The Trustees of the University of Pennsylvania, priority 2005, published 2008).

Tested on: metastatic breast cancer
Settings: first line of treatment in metastatic breast cancer; cited from earlier work

Trastuzumab: Trastuzumab (HERCEPTIN), first line of treatment in metastatic breast cancer
response rate: 25%
